B1: Optineurin (Homo sapiens), Q96CV9 (parent)
chain: MSHQPLSCLTEKEDSPSESTGNGPPHLAHPNLDTFTPEELLQQMKELLTENHQLKEAMKLNNQAMKGRFEELSAWTEKQKEERQFFEIQSKEAKERLMALSHENEKLKEELGKLKGKSERSSEDPTDDSRLPRAEAEQEKDQLRTQVVRLQAEKADLLGIVSELQLKLNSSGSSEDSFVEIRMAEGEAEGSVKEIKHSPGPTRTVSTGTALSKYRSRSADGAKNYFEHEELTVSQLLLCLREGNQKVERLEVALKEAKERVSDFEKKTSNRSEIETQTEGSTEKENDEEKGPETVGSEVEALNLQVTSLFKELQEAHTKLSEAELMKKRLQEKCQALERKNSAIPSELNEKQELVYTNKKLELQVESMLSEIKMEQAKTEDEKSKLTVLQMTHNKLLQEHNNALKTIEELTRKESEKVDRAVLKELSEKLELAEKALASKQLQMDEMKQTIAKQEEDLETMTILRAQMEVYCSDFHAERAAREKIHEEKEQLALQLAVLLKENDAFEDGGRQSLMEMQSRHGARTSDSDQQAYLVQRGAEDRDWRQQRNIPIHSCPKCGEVLPDIDTLQIHVMDCII
partner: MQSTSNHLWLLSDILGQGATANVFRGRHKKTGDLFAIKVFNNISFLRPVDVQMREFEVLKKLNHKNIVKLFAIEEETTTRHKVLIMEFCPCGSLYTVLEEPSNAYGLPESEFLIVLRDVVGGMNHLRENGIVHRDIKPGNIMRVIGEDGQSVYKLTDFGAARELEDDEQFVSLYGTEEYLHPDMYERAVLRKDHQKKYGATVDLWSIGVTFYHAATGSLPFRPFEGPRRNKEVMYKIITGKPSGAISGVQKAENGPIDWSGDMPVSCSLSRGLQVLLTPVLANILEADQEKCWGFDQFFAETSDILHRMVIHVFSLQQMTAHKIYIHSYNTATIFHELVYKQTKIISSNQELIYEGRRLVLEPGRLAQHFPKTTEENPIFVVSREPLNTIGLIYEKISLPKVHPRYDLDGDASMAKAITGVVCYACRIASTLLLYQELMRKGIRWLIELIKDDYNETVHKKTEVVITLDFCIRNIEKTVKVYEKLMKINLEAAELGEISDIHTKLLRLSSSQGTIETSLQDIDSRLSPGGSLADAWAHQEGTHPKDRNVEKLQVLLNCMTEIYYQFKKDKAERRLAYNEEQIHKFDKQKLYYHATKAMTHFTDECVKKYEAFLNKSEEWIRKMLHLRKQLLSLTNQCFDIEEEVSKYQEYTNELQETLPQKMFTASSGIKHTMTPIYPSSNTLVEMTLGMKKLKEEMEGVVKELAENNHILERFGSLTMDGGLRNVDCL

The first test covers variants of B1. Conditions: with tbk1_human TBK1, Q9UHD2.
As to M98K, the “effect of a mutation on the interaction” value was “disrupting interaction”.

Another test covers variants of B1. Particulars: with tbk1_human TBK1, Q9UHD2. The source holds these as a separate data set.
E50K: the “effect of a mutation on the interaction” value is on record as “increasing interaction”.

The values above are taken from IntAct's records for PubMed 18307994.
